US10208056B2, “Condensed tricyclic compounds as protein kinase inhibitors” (FUNDACIÓN DEL SECTOR PÚBLICO ESTATAL CENTRO NACIONAL DE …, priority 2015, dated 2019)

By UniProt entry, the sequences of proteins in these tests, tags left out. Residues count along the entry.
UniProt Q8TF76, 484-798: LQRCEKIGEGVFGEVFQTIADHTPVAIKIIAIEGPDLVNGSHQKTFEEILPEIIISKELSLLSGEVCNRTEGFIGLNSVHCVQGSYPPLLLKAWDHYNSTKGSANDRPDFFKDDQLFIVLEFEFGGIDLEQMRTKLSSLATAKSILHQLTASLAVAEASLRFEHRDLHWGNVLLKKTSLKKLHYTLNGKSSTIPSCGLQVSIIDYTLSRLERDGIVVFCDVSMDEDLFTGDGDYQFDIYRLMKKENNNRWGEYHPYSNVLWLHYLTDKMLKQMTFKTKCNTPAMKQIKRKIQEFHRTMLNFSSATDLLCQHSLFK

Columns and labels:
[1] = target: Haspin kinase (Homo sapiens (Human), UniProt Q8TF76); assay: Haspin kinase assay (ADP-Glo); assay type: biochemical; conditions: ATP 150 μM
Excerpt: The kinase assay relies on ADP-Glo^KM biochemical kinase assay (Promega). This is a luminescent kinase assay that measures ADP formed from a kinase reaction. Then ADP is converted into ATP, which is transformed into a light signal by Ultra-Glo™ Luciferase. The luminescent signal positively correlates with kinase activity. The assay measures the intrinsic ATPase activity (in the absence of peptidic substrate as phosphate acceptor).
The enzyme was purchase from Invitrogen (PV5708) as the kinase domain of GST tagged recombinant human proteins.
Assay conditions were as indicated by the kit manufacturers with the following adaptations: • Assay buffer: 15 mM HEPES pH 7.4, 20 mM NaCl, 1 mM EGTA, 0.02% Tween 20, 10 mM MgCl2, 0.1 mg/ml BGG • Assay volume: 20 μl • Incubation time and temperature: 60 min at 30° C. • Haspin concentration: 20 nM • ATP concentration: 150 μM • Tested compound: Serial 1:3 dilutions • Final DMSO concentration in the assay: 1%
Assays were performed in 384-well plates. The final read out was generated using an EnVision plate reader (Perkin-Elmer). Luminescent relative units are normalized against the control activity included for each compound (i.e., 100% Haspin activity, without compound) and the percentage of inhibition is calculated.

[2] = target: T1, intracellular HASPIN (Homo sapiens (Human), UniProt Q8TF76); assay: Endogenous phosphoH3 inhibition in SW620 cells growing in 10% FBS; assay type: cell-based; conditions: semiquantitative, read-out: SW620 pH3(T3)
Method: Endogenous phosphoH3 inhibition can be screened in cells growing in 10% FBS. Cells are plated as described before and treated for 8 h with compounds as described before. Then cells are lysated and phospho H3 evaluated as described before. The percentage of phosphorylated H3 vs total H3 in cells treated with DMSO is taken as hundred percent of phosphorylation. The percentage of H3 phosphorylation is finally plotted against concentration for each compound and EC50s for intracellular HASPIN inhibition are calculated using ActivityBase from IDBS.

[3] = target: T1, intracellular HASPIN; assay: Cellular HASPIN inhibition assay, western blot phospho H3T3 in synchronized SW620 cells; assay type: cell-based; conditions: semiquantitative, read-out: SW620 PH3(T3) in synchronized cells
Method: Compounds can be screened for their ability to inhibit intracellular HASPIN using a western blot assay to detect phosphorylation of the HASPIN substrate H3T3 in synchronized cells. SW620 cells are plated at 200000 cells per well in 6-well plates (Solmeglas 13118) in RPMI media (Sigma-Aldrich R6504) supplemented with 10% foetal bovine serum (Sigma-Aldrich F7524), Penicillin/Streptomycin solution diluted 1:100 (Gibco 15070-063), and fungizone (Gibco, 15290-018), and allowed to adhere overnight at 37° C. in 5% CO2. Cells are then treated 16 h hours with Nocadazole (Sigma-Aldrich M1404) at 250 ng/ml to arrest them in mitosis. Proteasoma inhibitor MG132 (Sigma-Aldrich C2211) is added to a final concentration of […] to keep cells arrested in mitosis. Compounds are then added to the cell media from a final concentration of 10 μM in 10-fold serial dilutions and the cells are incubated at 37° C. in 5% CO2. […] The protein content of the lysates is determined by DC protein assay (Biorad, Ref. 5000116). […] The bands are visualized and quantified using an Odyssey infrared imaging system (Li-Cor Biosciences). […] The percentage of H3 phosphorylation is finally plotted against concentration for each compound and EC50s for intracellular HASPIN inhibition are calculated using ActivityBase from IDBS.

[4] = tested on: DU145; assay: Combination assay, DU145; assay type: cell-based; conditions: Homo sapiens, DU-145; DU145, chemotherapeutic alone; read-out: Chemo GI50
Method: The combination index (CI) of combinations of certain example compounds and various chemotherapeutic agents in the CellTitetI-Glo® in vitro cell proliferation assays may be tested. A combination index score is calculated by the Chou and Talalay method (CalcuSyn software, Biosoft). The strength of synergy is scored using the ranking system Chou and Talalay: CI less than 0.8 indicates synergy, CI between 0.8 and 1.2 indicates additivity and CI greater than 1.2 indicates antagonism.
The EC50 values of representative combinations are also calculated. The individually measured EC50 values of the chemotherapeutic agent and the example compounds are compared to the EC50 value of the combination. The cell lines are characterised by tumor type. Combination assays are performed as described in: “Pim 1 kinase inhibitor ETP-45299 suppresses cellular proliferation and synergizes with PI3K inhibition”. Blanco-Aparicio, Carmen; Collazo, Ana Maria Garcia; Oyarzabal, Julen; Leal, Juan F.; Albaran, Maria Isabel; Lima, Francisco Ramos; Pequeno, Belen; Ajenjo, Nuria; Becerra, Mercedes; Alfonso, Patricia; Reymundo, Maria Isabel; Palacios, Irene; Mateos, Genoveva; Quinones, Helena; Corrionero, Ana; Carnero, Amancio; Pevarello, Paolo; Lopez, Ana Rodriguez; Fominaya, Jesus; Pastor, Joaquin; Bischoff, James R. Cancer Letters (Shannon, Ireland) 2011, 300(2), 145-153

Row | IC50 [1] | EC50 [2] | EC50 [3] | GI50 [4] | SMILES
1 | 0.296 µM | – | – | – | NC(=O)c1cc2c([nH]1)-c1ccncc1OC2C1CCCCC1 (stereo not shown) [Example 57]
2 | – | < 0.5 µM | < 0.5 µM | – | NC(=O)c1cc2c([nH]1)-c1ccncc1O[C@H]2C1CCCCC1 (single isomer, unassigned) [Example 70]
3 | 5.15 µM | – | 0.5 to 10 µM | – | NC(=O)c1cc2c([nH]1)-c1ccncc1O[C@@H]2C1CCCCC1 (single isomer, unassigned) [Example 69]
4 | – | – | – | 0.0025 µM | CC(=O)O[C@H]1C(=O)[C@@]2(C)[C@H]([C@H](OC(=O)c3ccccc3)[C@]3(O)C[C@H](OC(=O)[C@H](O)[C@@H](NC(=O)c4ccccc4)c4ccccc4)C(C)=C1C3(C)C)[C@]1(OC(C)=O)CO[C@@H]1C[C@@H]2O [Taxol, paclitaxel, reference compound]
5 | 0.0262 µM | – | – | – | CCn1c(C(N)=O)cc2c1-c1ccncc1OC21CCC1 [Example 66]
